The assay has as its target 5-hydroxytryptamine receptor 4 (Homo sapiens, UniProt Q13639).

Chains of the proteins cited; added tags and fusions are not shown. Lines headed by an entry give the natural chain unless they say otherwise; changes in a name come on top.
UniProt Q13639: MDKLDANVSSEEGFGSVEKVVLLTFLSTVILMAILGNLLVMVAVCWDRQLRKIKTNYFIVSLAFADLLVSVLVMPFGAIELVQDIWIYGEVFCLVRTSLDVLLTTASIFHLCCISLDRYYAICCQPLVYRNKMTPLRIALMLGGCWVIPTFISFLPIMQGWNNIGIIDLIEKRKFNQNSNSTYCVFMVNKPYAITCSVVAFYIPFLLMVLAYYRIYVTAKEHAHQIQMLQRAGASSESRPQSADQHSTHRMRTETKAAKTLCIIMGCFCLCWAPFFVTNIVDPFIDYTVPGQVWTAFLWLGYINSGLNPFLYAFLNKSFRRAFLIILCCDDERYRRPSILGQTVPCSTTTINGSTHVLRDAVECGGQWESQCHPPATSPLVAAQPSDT

One may read the Ki as the equilibrium dissociation constant of an inhibitor or competing ligand from its target. The low end stands for higher affinity, the high end for lower affinity.

The structures appear in SMILES notation.

In turn, `COc1cc(N)c(Cl)cc1C(=O)NC1CCN2CCCC1C2` (stereo unspecified) [NSC_3035240] displayed a Ki of 251 nM.

The values are drawn from BindingDB's records for doi:10.1016/0014-2999(95)00786-5 (Cnrs Upr 9023, 1996).
